Binding of CDR-mutated scFvs to a peptide of the spike HR2 region

All variants were tested on one target, the spike HR2 peptide PDVDLGDISGINAS (SARS-CoV-2).

Each scFv is VH, the linker GGGGSGGGGSGGGGS, VL, as in the parent Ab-14, and differs from it in the CDRs of the heavy chain only.
VH: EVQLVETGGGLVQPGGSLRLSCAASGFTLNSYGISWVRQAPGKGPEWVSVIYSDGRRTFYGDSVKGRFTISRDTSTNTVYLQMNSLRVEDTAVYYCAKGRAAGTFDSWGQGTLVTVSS
VL: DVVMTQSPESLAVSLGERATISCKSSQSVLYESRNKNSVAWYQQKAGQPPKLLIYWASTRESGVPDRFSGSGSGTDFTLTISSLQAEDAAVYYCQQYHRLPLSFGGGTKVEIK

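The starting antibody came from a phage panning campaign against this peptide. The variants were designed computationally from a first round of random CDR variants and then made and measured. Their group label is 14H_En_Gen (En: ensemble of fine-tuned language models; Gen: genetic algorithm). Affinity was read by AlphaSeq, a pooled yeast mating assay with surface-displayed partners. Binding brings cells together so that they mate, and sequencing counts the barcode pairs among the diploids. Each replicate has its own calibration line, from reference interactions of the BCL2 family. Each pool was mated in six replicate cultures.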

The parent's heavy chain CDRs are GFTLNSYGIS, VIYSDGRRTFYGDSVK, GRAAGTFDS; each variant's own CDRs replace them letter for letter.
Numbers give log10(Kd / nM), so 0 is 1 nM and 3 is 1 µM. Smaller is tighter.
The mean shown is taken over the replicates in which the pair was detected.
Where no diploid with the target was found in that replicate, the entry reads "nd": below detection, most likely a poor binder, though not proof of it.
Three control strains display no target. For all heavy chain designs, 1% of the pairings with them gave a signal, with a median of 2.08 and one signal in twenty below 0.84, so weak values seen in few replicates may be background. For each scFv, signals with the empty controls are counted beside the result, with their mean in brackets.
The authors' rule: three or more of the six replicates give a measured affinity, fewer mean a poor binder.
The range of this assay differs from that of the first round, and the authors advise against merging the two.

| CDR-H1 | CDR-H2 | CDR-H3 | log10 Kd (nM) by replicate | mean log10 Kd (nM) | control signals |
|---|---|---|---|---|---|
| GFDLNEYGIS | VIYADGKRTAYADDVK | GGNAGTFDV | -0.13 -0.27 -0.23 -0.69 -0.36 -0.40 | -0.35 | 0/18 |
| GFDLNEYGIS | VIYADGVRTAYADSVK | GSNAGTFDQ | -0.63 -0.38 -0.73 -0.93 -1.05 -0.34 | -0.68 | 0/18 |
| GFDLNEYGIS | VIYADGKRTAYADDVK | GETAGTFDI | -0.23 -0.98 -0.42 -1.75 -1.01 -1.24 | -0.94 | 0/18 |
| GFDLNEYGIS | VIYADGRRTAYADSVK | GQNAGTFDM | 0.05 0.02 -0.69 -0.27 -0.74 -0.65 | -0.38 | 0/18 |
| GFDLEEYGIS | VIYADGMRTAYADSVK | GNVAGTFDI | -0.92 -0.40 -0.65 -0.72 -0.89 -0.27 | -0.64 | 0/18 |
| GFDLEDYGIS | VIYADGMRTAYADSVK | GNVAGTFDL | -0.10 -0.51 -0.10 -0.24 1.22 -0.19 | 0.01 | 0/18 |
| GFNLDEYGIS | VIYADGRRTAYSDSVK | GEVAGTFDV | -0.32 -0.53 -0.08 -0.49 -0.41 -0.16 | -0.33 | 1/18 (2.33) |
| GFDLNEYGIS | VIYADGMRSYYADSVK | GNQAGTFDV | -0.24 -0.55 -0.68 -0.26 -0.71 -0.29 | -0.45 | 0/18 |
| GFDLNEYGIS | VIYADGMRTAYVDDVK | GNTAGTFDV | -0.57 -0.36 -0.67 0.38 -0.11 -0.04 | -0.23 | 0/18 |
| GFDLNEYGIS | VIYADGMRTAYADSVK | GQNAGTFDT | -0.04 -0.44 -0.02 -0.36 -0.50 -0.14 | -0.25 | 0/18 |
| GFDLNEYGIS | VIYADGSRKAYADSVK | GTNAGTFDV | -0.17 -0.66 -0.56 -0.66 -0.47 -0.45 | -0.50 | 2/18 (2.09) |
| GFDLNEYGIS | VIYADGKRTAYADSVK | GNVAGTFDA | -0.38 -0.65 -0.27 -0.62 -0.44 -0.65 | -0.50 | 0/18 |
| GFDLNEYGIS | VIYADGRRTAYADSVK | GSNAGTFDI | -0.52 -0.35 -0.39 -0.23 -0.17 -0.11 | -0.30 | 0/18 |
| GFDLDEYGIS | VIYADGMRTYYADSVK | GNVAGTFDT | -0.13 0.05 -0.01 -0.67 -0.75 -0.63 | -0.36 | 0/18 |
| GFDLNEYGIS | VIYADGRRTFYADSVK | GNTAGTFDV | -0.39 -0.41 -0.49 -0.18 -0.49 -0.04 | -0.33 | 0/18 |
| GFDLNEYGIS | VIYADGLRTAYADDVK | GNNAGTFDI | -0.33 -0.33 -0.47 -0.77 -0.49 -0.63 | -0.50 | 0/18 |
| GFDLDEYGIS | VIYADGRRTAYADSVK | GQNAGTFDL | -0.22 -0.10 -0.27 -0.43 -0.06 -0.13 | -0.20 | 0/18 |
| GFDLDEYGIS | VIYADGKRTAYSDSVK | GNTAGTFDL | 0.61 -0.24 -0.10 0.12 0.72 -0.05 | 0.18 | 2/18 (1.91) |
| GFDLNEYGIS | VIYADGVRTAYADDVK | GEQAGTFDV | 0.02 1.13 0.45 0.08 -0.39 -0.16 | 0.19 | 0/18 |
| GFDLNEYGIS | VIYADGMRTSYADSVK | GEVAGTFDV | 0.57 -0.77 0.86 -0.63 -0.81 2.82 | 0.34 | 0/18 |
| GFDLNEYGIS | VIYADGRRTAYTDSVK | GNVAGTFDM | -0.37 -0.44 -0.53 -0.26 -0.55 -0.44 | -0.43 | 0/18 |
| GFDLNEYGIS | VIYADGKRTFYADSVK | GEVAGTFDT | 0.07 -0.03 -0.63 -0.79 -0.29 -0.54 | -0.37 | 0/18 |
| GFDLNEYGIS | VIYADGKRTAYADSVK | GNVAGTFDV | -0.38 -0.50 -0.43 -0.74 -0.44 -0.15 | -0.44 | 0/18 |
| GFDLDEYGIS | VIYADGMRTAYADDVK | GNNAGTFDQ | 0.63 -0.05 0.02 0.11 0.65 1.17 | 0.42 | 0/18 |
| GFDLNEYGIS | VIYADGMRTVYADSVK | GQVAGTFDL | -0.27 -0.65 -0.78 -0.67 -0.78 -0.44 | -0.60 | 0/18 |
| GFDLNEYGIS | VIYADGKRTAYIDSVK | GNQAGTFDV | -0.39 -0.50 -0.60 -0.56 -0.21 -0.19 | -0.41 | 0/18 |
| GFDLNEYGIS | VIYADGKRTAYADDVK | GQNAGTFDV | -0.57 -0.46 -0.21 -1.10 -0.65 -0.62 | -0.60 | 0/18 |
| GFDLNEYGIS | VIYADGVRTFYADSVK | GNTAGTFDV | 0.57 -0.48 -0.38 -0.30 -0.12 -0.44 | -0.19 | 0/18 |
| GFDLDEYGIS | VIYADGMRTAYADSVK | GENGGTFDV | 0.29 -0.36 0.17 0.07 0.21 0.52 | 0.15 | 0/18 |
| GFDLDEYGIS | VIYADGVRTSYADSVK | GNVAGTFDL | 0.25 -0.47 -0.51 -0.28 -0.23 -0.31 | -0.26 | 0/18 |
| GFNLDEYGIS | VIYADGMRTAYADSVK | GNQAGTFDI | 0.02 -0.25 -0.20 -0.31 -0.15 -0.37 | -0.21 | 0/18 |
| GFDLNEYGIS | VIYADGVRTSYADSVK | GNQAGTFDV | 0.47 -0.31 -0.29 -0.55 -0.24 0.06 | -0.14 | 0/18 |
| GFDLNEYGIS | VIYADGVRTAYSDSVK | GQNAGTFDL | 0.42 -0.17 -0.35 -0.94 -0.53 -0.47 | -0.34 | 0/18 |
| GFNLDEYGIS | VIYADGKRTAYADSVK | GNVAGTFDI | nd nd nd nd nd nd | nd | 0/18 |
| GFDLNEYGIS | VIYADGQRTAYADSVK | GNVAGTFDI | -0.32 -0.32 -0.48 -0.64 -0.18 -0.38 | -0.39 | 0/18 |
| GFDLNEYGIS | VIYADGQRTAYADSVK | GNVAGTFDM | -0.05 -0.46 -0.31 -0.45 -0.44 -0.39 | -0.35 | 2/18 (1.44) |
| GFDLNEYGIS | VIYADGKRTYYADDVK | GENAGTFDV | nd 0.63 0.74 0.67 1.32 2.07 | 1.08 | 0/18 |
| GFDLDEYGIS | VIYADGMRTAYADSVK | GNEAGTFDM | -0.60 -0.56 -0.66 -0.66 -0.41 -0.29 | -0.53 | 0/18 |

For reference, 6 entries of the list once more:

{"CDR-H1": "GFDLDEYGIS", "CDR-H2": "VIYADGMRTYYADSVK", "CDR-H3": "GNVAGTFDT", "log10 Kd (nM) by replicate": "-0.13 0.05 -0.01 -0.67 -0.75 -0.63", "mean log10 Kd (nM)": "-0.36", "control signals": "0/18"}
{"CDR-H1": "GFDLNEYGIS", "CDR-H2": "VIYADGVRTFYADSVK", "CDR-H3": "GNTAGTFDV", "log10 Kd (nM) by replicate": "0.57 -0.48 -0.38 -0.30 -0.12 -0.44", "mean log10 Kd (nM)": "-0.19", "control signals": "0/18"}
{"CDR-H1": "GFDLNEYGIS", "CDR-H2": "VIYADGRRTAYADSVK", "CDR-H3": "GSNAGTFDI", "log10 Kd (nM) by replicate": "-0.52 -0.35 -0.39 -0.23 -0.17 -0.11", "mean log10 Kd (nM)": "-0.30", "control signals": "0/18"}
{"CDR-H1": "GFDLNEYGIS", "CDR-H2": "VIYADGVRTAYADSVK", "CDR-H3": "GSNAGTFDQ", "log10 Kd (nM) by replicate": "-0.63 -0.38 -0.73 -0.93 -1.05 -0.34", "mean log10 Kd (nM)": "-0.68", "control signals": "0/18"}
{"CDR-H1": "GFDLDEYGIS", "CDR-H2": "VIYADGMRTAYADSVK", "CDR-H3": "GNEAGTFDM", "log10 Kd (nM) by replicate": "-0.60 -0.56 -0.66 -0.66 -0.41 -0.29", "mean log10 Kd (nM)": "-0.53", "control signals": "0/18"}
{"CDR-H1": "GFDLEEYGIS", "CDR-H2": "VIYADGMRTAYADSVK", "CDR-H3": "GNVAGTFDI", "log10 Kd (nM) by replicate": "-0.92 -0.40 -0.65 -0.72 -0.89 -0.27", "mean log10 Kd (nM)": "-0.64", "control signals": "0/18"}

From the AlphaSeq antibody data of Li et al. 2023 (doi:10.1038/s41467-023-39022-2), copy in the FLAb collection.